The conditions of data set [1]: therapeutic total Cmax; cited from earlier work.
Data set [2] concerns human iPSC-CM (iCell Cardiomyocytes2). Nature of the data set: Spent-media metabolomics (LC-MS) cardiotoxicity prediction models, blinded test set. Particulars: cardiotoxic vs non-cardiotoxic, at the Exposure (μM) listed per compound in Table 3, model from confirmed metabolites and viability.

Consider `CN(CCOc1ccc(CC2SC(=O)NC2=O)cc1)c1ccccn1` (centres unmarked) [Rosiglitazone], for which, in data set [1], the “Cmax Total” value was 1700 nM. The “Global Tox Model Prediction” value in data set [2] is “−”.
